The values below come from PubChem BioAssay AID583 (Sanford-Burnham Center for Chemical Genomics, 2007).

Chains of the proteins cited; added tags and fusions are not shown.
UniProt P0DMV8, whole entry: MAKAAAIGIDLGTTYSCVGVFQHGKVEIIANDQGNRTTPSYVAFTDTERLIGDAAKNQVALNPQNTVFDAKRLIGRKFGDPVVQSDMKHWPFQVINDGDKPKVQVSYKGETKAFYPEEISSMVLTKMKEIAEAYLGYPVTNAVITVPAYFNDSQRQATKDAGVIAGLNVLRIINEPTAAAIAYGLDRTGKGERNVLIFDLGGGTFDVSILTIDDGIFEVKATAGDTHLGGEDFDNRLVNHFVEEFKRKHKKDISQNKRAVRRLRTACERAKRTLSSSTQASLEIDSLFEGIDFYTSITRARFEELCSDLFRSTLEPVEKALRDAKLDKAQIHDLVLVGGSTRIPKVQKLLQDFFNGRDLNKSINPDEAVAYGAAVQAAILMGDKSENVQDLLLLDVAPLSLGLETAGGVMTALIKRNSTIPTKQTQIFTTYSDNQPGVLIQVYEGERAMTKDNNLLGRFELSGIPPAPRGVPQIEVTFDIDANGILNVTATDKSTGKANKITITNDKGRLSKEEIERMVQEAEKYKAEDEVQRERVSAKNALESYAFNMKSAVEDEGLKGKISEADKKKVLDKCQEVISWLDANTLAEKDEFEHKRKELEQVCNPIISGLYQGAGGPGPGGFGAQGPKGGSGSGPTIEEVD

The structures appear in SMILES notation. Values joined by “and” are separate entries in the source; they are usually repeats but may differ in a detail not shown here. Equal values may be shown once. Only a part is listed here, and it is no random draw. Active and inactive are the calls of the source. Rule as the data show it: active = displacement above about 50%; inactive = the rest.

The experiment addresses Heat shock 70 kDa protein 1A (Homo sapiens) (UniProt P0DMV8). Kind of experiment: small molecules displacing fluorescent ligand from Hsp70 – biochemical, fluorescence polarization, primary screen (AID 583).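 Also: plate controls were vehicle for no effect and reference ligand for full effect.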 To be noted: Hsp70 fluorescence polarization probe displacement, mP; at 20 µM; hits give high values. (In general: In fluorescence polarisation assays a small probe gives low polarisation when free and higher when bound to something large.)
On to `Cc1nc2ccc3ccccc3c2s1.O=[N+]([O-])c1cc([N+](=O)[O-])c(O)c([N+](=O)[O-])c1`, for which the displacement is inactive: -2.8%.
Under `COc1ccccc1OP(C)(=O)Nc1c(C)cccc1C` (stereo unspecified) stands inactive: 0.1%.
Regarding `CP(=O)(Oc1ccccc1)Oc1ccccc1`, the displacement was inactive: -0.9%.
Under `Cc1cc(C)cc(OP(C)(=O)Nc2ccccn2)c1` (stereo unspecified) stands inactive: 2.7%; under `CP(=O)(Oc1ccc(Cl)cc1)Oc1ccc(Cl)cc1`, inactive: -0.7%.
Under `Cc1ccc(C)c(NP(C)(=O)Oc2ccccc2)c1` (stereo unspecified) stands inactive: 0.9%.
Under `COc1ccc(OP(C)(=O)Nc2cccc(F)c2)cc1` (stereo unspecified) stands inactive: -0.9%; under `COc1ccccc1OP(C)(=O)Nc1ccc(C)cc1` (stereo unspecified), inactive: -2.2%.
Regarding `Cc1ccc(NP(C)(=O)Oc2ccccc2)c(C)c1` (stereo unspecified), the displacement was inactive: 3.8%.
As to `CN(C)CCOC(=O)C(O)(c1ccccc1)c1ccccc1`, the displacement was inactive: -0.9%.
Then `CP(=S)(Nn1cnnc1)Oc1ccccc1` (stereo unspecified), with inactive: 2.8%; and `CP(=O)(NC(=O)Nc1ccccc1)Oc1ccccc1` (stereo unspecified), with inactive: 3%.
Under `CP(=O)(Oc1ccccc1F)Oc1ccccc1F` stands inactive: -0.4%.
Under `CP(=O)(Nc1ccccn1)Oc1ccc(Cl)cc1` (stereo unspecified) stands inactive: 6.4%; under `CCOP(C)(=S)SCC(=O)NC(C)C(=O)O` (stereo unspecified), inactive: -5.1% and inactive: -4.9%; under `CP(=O)(Oc1ccccc1)N1CCOC1=O` (stereo unspecified), inactive: -2.9%.
For the compound `COc1ccccc1OP(C)(=O)Nc1c(C)n(C)n(-c2ccccc2)c1=O` (stereo unspecified), the displacement was inactive: -2.8%.
Then `CCN(CC)CC(O)COC(=O)C(O)(c1ccccc1)C1CCCCC1` (stereo unspecified), with inactive: -3.9%.
Under `CP(=O)(Nc1ccc(Cl)cc1)Oc1ccc(F)cc1` (stereo unspecified) stands inactive: 8%; under `CC(C)(C)c1ccc(OP(C)(=O)O)cc1`, inactive: 7.5%; under `CP(=O)(OC12CC3CC(CC(C3)C1)C2)OC12CC3CC(CC(C3)C1)C2`, inactive: -2.4%.
With `COc1ccccc1OP(C)(=O)Nc1ccc(C)c(C)c1` (stereo unspecified), the displacement was inactive: -3.6%.
Under `Cc1nc2ccc3ccccc3c2o1.O=[N+]([O-])c1cc([N+](=O)[O-])c(O)c([N+](=O)[O-])c1` stands inactive: -0.4%; under `CN(C)CCOC(=O)C(O)(c1ccccc1)C1CCCC1` (stereo unspecified), inactive: -1.4%.
Under `COc1ccc(OP(C)(=O)Nc2ccccn2)cc1` (stereo unspecified) stands inactive: 2.7%.
Under `CP(=O)(Nc1ccccn1)Oc1ccccc1` (stereo unspecified) stands inactive: 5.1%; under `COc1ccccc1OP(C)(=O)Nc1ccc(C)cc1C` (stereo unspecified), inactive: -3.6%; under `Cc1c(NP(C)(=O)Oc2ccc(C(C)C)cc2)c(=O)n(-c2ccccc2)n1C` (stereo unspecified), inactive: -0.8%.
Consider `CP(=O)(Nc1ccccc1F)Oc1ccccc1` (stereo unspecified), for which the displacement was inactive: 4.4%.
Then `CP(=O)(Nc1ccccc1)Oc1ccc(F)cc1` (stereo unspecified), with inactive: -6%.
Take `CCN(CC)CCCOC(=O)C(O)(c1ccccc1)C1CCCCC1` (stereo unspecified): the displacement was inactive: -5%.
For `CN(C)CCOC(=O)C(O)(c1ccccc1)C1CCCCC1` (stereo unspecified), the displacement was inactive: 9.1%.
Under `CP(=O)(Oc1ccc(F)cc1)Oc1ccc(F)cc1` stands inactive: 4.5%; under `CCOP(C)(=S)SCC(=O)NC(C)(CC)C(=O)O` (stereo unspecified), inactive: -3.5%.
Then `Cc1ccccc1NP(C)(=O)Nc1ccccc1C`, with inactive: -3.6%.
Then `CP(=O)(Nc1ccc2c(c1)OCCO2)Oc1ccccc1` (stereo unspecified), with inactive: -0.6%.
